Article PMC6445123 (Scientific Reports, 2019)

Chains of the proteins cited; added tags and fusions are not shown. Lines headed by an entry give the natural chain unless they say otherwise; changes in a name come on top. A line that says so, or that is headed by a name, gives the form on record, which may keep a tag or linker. Residues count along the entry.
UniProt P55212, 194-293 limits assumed: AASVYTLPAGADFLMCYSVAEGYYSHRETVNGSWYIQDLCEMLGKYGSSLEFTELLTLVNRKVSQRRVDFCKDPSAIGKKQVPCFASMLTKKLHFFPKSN
UniProt P55212, 24-193 with tags or gaps with the stated changes limits assumed: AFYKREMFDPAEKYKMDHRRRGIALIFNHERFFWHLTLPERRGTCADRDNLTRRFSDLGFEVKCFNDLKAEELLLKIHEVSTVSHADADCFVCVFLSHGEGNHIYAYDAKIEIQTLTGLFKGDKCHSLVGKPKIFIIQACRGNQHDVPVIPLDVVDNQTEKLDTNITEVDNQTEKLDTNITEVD

Columns and labels:
active Casp6 (Casp6-WT) [1] = target: T1, active Casp6 (Casp6-WT) (Homo sapiens, UniProt P55212, INS179NQTEKLDTNITEVD); test: Casp6-C163A cleavage assay (prodomain cleavage of catalytically inactive Casp6-C163A by active Casp6); conditions: rate of Casp6-C163A prodomain cleavage vs DMSO control
Description: (§1) To assess the potency of in silico hits, a fluorescence-based Ac-VEID-AFC cleavage assay was used to measure recombinant active Casp6 reaction rate in the absence or presence of 100 µM concentration of compounds. A 30% inhibition cut off was arbitrarily chosen for further investigation of putative inhibitors. […] AFC signal interference by compound intrinsic fluorescence was ruled out (Fig. S4). Casp6 inhibition was confirmed for seven compounds (C7, C13, C14, S2, S10, S11 and S13) using a colorimetric Ac-VEID-pNA cleavage assay (Table 2, Fig. S3). […] The hits had IC50 values ranging from 13.2 µM to 289 µM (Table 2).
(§2) In fluorescence-based Casp6 activity assay, 10 µM Ac-VEID-AFC was added to 20 nM Casp6 in SB with 100 μM compound and 1% dimethyl sulfoxide (DMSO), and reaction rate was measured for 20 min at 37 °C as above. Compound potency was calculated by normalising Ac-VEID-AFC cleavage rate to 1% DMSO control. In colorimetric Casp6 activity assay, 200 µM Ac-VEID-pNA (N-acetyl-Val-Glu-Ile-Asp-p-nitroanilide, Enzo Life Sciences) was added to 200 nM Casp6 in SB with 100 μM compound, and Ac-VEID-pNA cleavage rate was measured at 37 °C for 30 min in clear 96-well plate (Sartstedt, Nümbrecht, Germany) using Synergy H4 plate reader at 405 nm. Absorbance was converted to the released pNA amount based on a standard curve of 0–250 µM pNA. Cleavage rates were calculated from the linear assay phase and were normalised to 1% DMSO control. In Casp6-C163A cleavage assay, 0.5 ng/µl Casp6-WT was preincubated with 100 µM inhibitor, 5 µM Q-VD-OPh or 1% DMSO in SB (30 min, RT), followed by transfer on ice, addition of 0.5 µg/µl Casp6-C163A, and incubation (37 °C, 5, 10 and 15 min). Reactions were stopped by adding SDS-PAGE sample buffer (62.5 mM Tris pH 6.8, 2% SDS, 0.1 M DTT, 0.01% Bromphenol Blue, 10% glycerol) and heating (5 min, 95 °C). Samples (2 µl) were analysed on 15% SDS-PAGE gels, proteins were stained with Coomassie blue, and gels were de-stained with 10% acetic acid. The intensities of protein bands were quantified from scanned gels using ImageJ. The band intensity of Casp6-C163A without a prodomain was plotted against the time and the Casp6-C163A cleavage rates were calculated from the slopes of linear plots. The % activity of Casp6-WT in the presence of inhibitors was calculated relative to DMSO control.

active Casp6 (Casp6-WT) [2] = target: T1, active Casp6 (Casp6-WT); test: Fluorescence-based Ac-VEID-AFC cleavage assay (Casp6 activity, IC50 determination); conditions: for % Inhibition with 100 µM compound (fluorescence assay) / IC50: 10 µM Ac-VEID-AFC; for % Inhibition with 100 µM compound (fluorescence assay): 20 nM Casp6, relative to 1% DMSO control; for IC50: fluorescence assay, 20 nM Casp6 active sites; for fold increase in IC50 (reduction in potency) compared to C13: Casp6-WT
Description: as §1
Casp6 active sites were quantified using zVAD-FMK (N-benzyloxycarbonyl-Val-Ala-Asp-(O-methyl)-fluoromethylketone, MP Biomedicals, Santa Ana, CA, USA)[51],[64]. Casp6 activity was measured in Stennicke’s buffer (SB: 20 mM piperazine-N,N′-bis-(2-ethanesulfonic acid) pH 7.2, 100 mM NaCl, 10 mM DTT, 1 mM EDTA, 0.1% 3-[(3-cholamidopropyl)-dimethylammonio]-2-hydroxy-1-propanesulfonic acid, 10% sucrose)[65] using 40 µM Ac-VEID-AFC (Ac-Val-Glu-Ile-Asp-7-Amino-4-trifluoromethylcoumarin, Enzo Life Sciences, Farmingdale, NY, USA)[64] and 10-250 nM active site titrated Casp6. Reactions were initiated by Ac-VEID-AFC addition and followed for 20 min at 37 °C in a black clear bottom 96-well microplate (Costar, Corning, NY, USA) in Synergy H4 Hybrid instrument (BioTek, Winooski, VT, USA) with excitation/emission at 380/505 nm. Released AFC was calculated from AFC standard curve (0-25 µM). Casp6 VEIDase activity (released pmol AFC/min) was calculated from the initial linear reaction part. Ac-VEID-AFC hydrolysis initial velocities were measured with 10 nM active-site titrated Casp6 and […] Ac-VEID-AFC. Initial velocities v versus substrate concentration [S] were fit to a rectangular hyperbola using Michaelis-Menten equation in GraphPad Prism 5 (GraphPad Software, La Jolla, CA, USA).
as §2
IC50 values were determined against 20 nM Casp6 active sites in fluorescence-based Casp6 activity assay with 10 µM Ac-VEID-AFC and 1 nM-500 µM inhibitor. […]

recombinant active Casp6 = recombinant active Casp6 (Homo sapiens, UniProt P55212, INS179NQTEKLDTNITEVD); test: Colorimetric Ac-VEID-pNA cleavage assay; conditions: 200 µM Ac-VEID-pNA, 200 nM Casp6
Description: as §1, §2

SMILES	% Inhibition with 100 µM compound (Casp6-C163A cleavage assay) (active Casp6 (Casp6-WT) [1])	% Inhibition with 100 µM compound (fluorescence assay) (active Casp6 (Casp6-WT) [2])	IC50 (active Casp6 (Casp6-WT) [2])	fold increase in IC50 (reduction in potency) compared to C13 (active Casp6 (Casp6-WT) [2]) [fold]	% Inhibition with 100 µM compound (colorimetric assay) (recombinant active Casp6) [%]	fold lower IC50 than S10 (active Casp6 (Casp6-WT) [2]; compared with IC50 of S10 (30.2 µM))
O=C(CC1C(=O)NCCN1Cc1ccc(F)cc1Cl)NC1CCCCCCC1 (stereo not shown)	~ 30% and 28.7 ± 7.4%	33.3 ± 4.8%	46.4 µM	–	–	–
O=C(Cn1cc(C=C2C(=O)NC(=S)N(Cc3ccco3)C2=O)c2ccccc21)NCC1CCCO1 (stereo not shown)	90.5 ± 5.2%	89.0 ± 3.0%	4.4 µM	–	–	–
COC(=O)c1cc(CNC(=O)c2cccc3c(C)c(C)[nH]c23)cc(NC(=O)c2ccco2)c1	–	24.7 ± 1.7^a %	–	55	–	–
O=C(CCN1C(=O)C(=Cc2ccccc2Cl)SC1=S)NC12CC3CC(CC(C3)C1)C2	–	32.3 ± 4.3%	123 µM	–	–	–
O=c1nc(CSc2nnnn2-c2ccc(Cl)cc2)[nH]c2ccccc12	–	34.0 ± 5.0%	142 µM	–	60.2 ± 6.5	–
Cc1nn(-c2ccccc2)c2sc(C(=O)Nc3c(C)n(C)n(-c4ccccc4)c3=O)cc12	–	31.8 ± 4.8%	90 µM	–	52.9 ± 4.1	–
O=C1NC(=O)N(Cc2ccco2)C(=O)C1=Cc1cn(CC(=O)N2CCOCC2)c2ccccc12	–	94.6 ± 1.1%	12.8 µM	–	46.8 ± 7.4	–
NC(=O)Cn1cc(C=C2C(=O)NC(=O)N(Cc3ccco3)C2=O)c2ccccc21	–	92.0 ± 6.7%	10.5 µM	–	64.4 ± 14.7	–
COc1cccc(CN2CCNC(=O)C2CC(=O)NCc2cnn(-c3ccccc3C)c2)c1 (stereo not shown)	–	38.9 ± 5.5%	44.1 µM	–	92.0 ± 0.3	–
COCCCNC(=O)Cn1cc(C=C2C(=O)NC(=O)N(Cc3ccco3)C2=O)c2ccccc21	–	93.7 ± 0.8%	12.9 µM	–	52.5 ± 6.5	–
O=C1NC(=O)N(Cc2ccco2)C(=O)C1=Cc1cn(CC(=O)N2CCCC2)c2ccccc12	–	96.3 ± 1.6%	9.8 µM	–	53.3 ± 7.8	–
Cc1nc(Nc2nc(CSc3ccccn3)cc(=O)[nH]2)nc2ccccc12	~ 30% and 23.8 ± 20.0%	30.3 ± 1.7%	233 µM	–	–	–
NC(=O)c1c(NC(=O)CSc2nc(-c3ccccc3)cc(=O)[nH]2)sc2c1CCCC2	~ 30% and 27.8 ± 14.0%	34.9 ± 5.1%	110 µM	–	–	–
O=C(Cn1cc(C(=O)COc2ccccc2)c2ccccc21)NCc1ccco1	–	59.3 ± 2.5%	80 µM and 79.9 µM	–	44.7 ± 4.7	–
COCCNC(=O)Cn1cc(C=C2C(=O)NC(=O)N(Cc3ccco3)C2=O)c2ccccc21	–	92.3 ± 2.7%	16.5 µM	–	53.4 ± 10.4	–
CC1CCCCN1C(=O)Cn1cc(C=C2C(=O)NC(=O)N(Cc3ccco3)C2=O)c2ccccc21 (stereo not shown)	–	81.3 ± 3.3%	16.4 µM	–	43.7 ± 3.1	–
O=C1NC(=O)N(Cc2ccco2)C(=O)C1=Cc1cn(CC(=O)N2CCCCC2)c2ccccc12	–	96.8 ± 0.7%	11 µM	–	62.9 ± 6.8	–
COC(=O)c1cc(CNC(=O)C2Cc3ccccc3O2)cc(NC(=O)Cc2ccccc2)c1 (stereo not shown)	–	21.8 ± 2.5^a %	–	117	–	–
O=C1NC(=S)N(Cc2ccco2)C(=O)C1=Cc1cn(CC(=O)N2CCOCC2)c2ccccc12	81.7 ± 3.4%	81.7 ± 2.0%	7.6 µM	–	–	~ 3.8 fold
COCCNC(=O)Cn1cc(C=C2C(=O)NC(=S)N(Cc3ccco3)C2=O)c2ccccc21	81.8 ± 4.6%	74.3 ± 5.8%	16.8 µM	–	–	–

Values joined by “and” are separate entries in the source; they are usually repeats but may differ in a detail not shown here. Equal entries are not always repeated. Marks after values point to notes of the source that are not given here.
